Biological target: mGluR5 (Rattus norvegicus, UniProt P31424)
Test: functional mGluR5 antagonist assay
Assay type: cell-based
Settings: identified from the functional HTS

By UniProt entry, the sequences of proteins in these tests, tags left out. Residues count along the entry.
UniProt P31424, 21-1203: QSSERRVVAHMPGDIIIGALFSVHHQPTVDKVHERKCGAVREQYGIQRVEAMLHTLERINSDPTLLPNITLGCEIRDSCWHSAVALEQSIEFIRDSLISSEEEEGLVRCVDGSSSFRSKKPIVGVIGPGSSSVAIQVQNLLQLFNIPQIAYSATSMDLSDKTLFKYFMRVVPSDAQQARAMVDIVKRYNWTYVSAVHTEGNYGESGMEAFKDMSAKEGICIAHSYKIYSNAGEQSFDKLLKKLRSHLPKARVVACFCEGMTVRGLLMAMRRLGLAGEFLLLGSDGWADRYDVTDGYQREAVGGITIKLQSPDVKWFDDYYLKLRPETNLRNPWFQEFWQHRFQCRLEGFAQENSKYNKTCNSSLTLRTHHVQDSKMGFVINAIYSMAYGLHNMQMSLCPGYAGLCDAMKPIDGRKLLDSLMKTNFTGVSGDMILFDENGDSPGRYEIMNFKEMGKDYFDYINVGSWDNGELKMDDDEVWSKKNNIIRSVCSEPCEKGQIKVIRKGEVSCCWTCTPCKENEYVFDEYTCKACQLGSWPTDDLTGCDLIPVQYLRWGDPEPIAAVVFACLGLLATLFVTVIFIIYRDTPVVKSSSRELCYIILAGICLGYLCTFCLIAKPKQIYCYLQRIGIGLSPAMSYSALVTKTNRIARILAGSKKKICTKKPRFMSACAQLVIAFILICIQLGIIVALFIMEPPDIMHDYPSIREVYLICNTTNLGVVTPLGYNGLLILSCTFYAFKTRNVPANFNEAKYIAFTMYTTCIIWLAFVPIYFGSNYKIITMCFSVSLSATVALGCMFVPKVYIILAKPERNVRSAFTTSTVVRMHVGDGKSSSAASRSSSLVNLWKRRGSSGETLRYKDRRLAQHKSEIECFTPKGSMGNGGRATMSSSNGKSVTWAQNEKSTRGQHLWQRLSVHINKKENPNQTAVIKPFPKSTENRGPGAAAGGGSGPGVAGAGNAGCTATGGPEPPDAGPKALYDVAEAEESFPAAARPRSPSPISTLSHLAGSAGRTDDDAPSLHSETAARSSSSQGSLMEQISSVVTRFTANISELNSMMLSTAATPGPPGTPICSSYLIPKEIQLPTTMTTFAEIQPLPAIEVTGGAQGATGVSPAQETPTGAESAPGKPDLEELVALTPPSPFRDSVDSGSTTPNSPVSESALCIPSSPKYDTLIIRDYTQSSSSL

## Cc1cc(C)c2c(N)c(C(=O)c3ccc(F)cc3)oc2n1 [Cmpd 12, (3-amino-4,6-dimethylfuro[2,3-b]pyridine-2-yl)(4-fluorophenyl)methanone]
  IC50 in functional HTS: submicromolar

— PMC3177605 (Bioorganic & medicinal chemistry letters, 2009)
